Key:
Acetylcholinesterase [1] = target: Acetylcholinesterase (Torpedo californica, UniProt P04058)
Acetylcholinesterase [2] = target: T1, Acetylcholinesterase (Homo sapiens, UniProt P22303); assay: Inhibition of human recombinant AChE
Cholinesterase = Cholinesterase (Homo sapiens, UniProt P06276)
Acetylcholinesterase [3] = target: T1, Acetylcholinesterase
Acetylcholinesterase [4] = target: Acetylcholinesterase (Mus musculus, UniProt P21836); assay: Inhibition of mouse AChE

By UniProt entry, the sequences of proteins in these tests, tags left out. Residues count along the entry.
UniProt P04058, 22-564 limits assumed: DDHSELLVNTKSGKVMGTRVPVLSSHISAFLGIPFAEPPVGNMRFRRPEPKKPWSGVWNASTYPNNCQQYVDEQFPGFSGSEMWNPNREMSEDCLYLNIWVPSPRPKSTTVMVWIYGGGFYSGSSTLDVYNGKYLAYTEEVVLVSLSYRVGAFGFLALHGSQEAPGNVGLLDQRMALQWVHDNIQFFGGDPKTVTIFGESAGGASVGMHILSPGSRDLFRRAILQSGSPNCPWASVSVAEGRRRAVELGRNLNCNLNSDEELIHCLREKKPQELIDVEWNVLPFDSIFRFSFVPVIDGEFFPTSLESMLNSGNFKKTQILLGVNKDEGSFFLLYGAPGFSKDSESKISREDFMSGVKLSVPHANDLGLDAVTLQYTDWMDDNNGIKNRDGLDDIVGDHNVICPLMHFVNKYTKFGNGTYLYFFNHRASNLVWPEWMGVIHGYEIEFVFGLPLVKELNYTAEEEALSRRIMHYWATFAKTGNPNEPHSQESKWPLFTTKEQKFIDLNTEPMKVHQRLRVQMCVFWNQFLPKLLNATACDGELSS
UniProt P22303, 32-614 limits assumed: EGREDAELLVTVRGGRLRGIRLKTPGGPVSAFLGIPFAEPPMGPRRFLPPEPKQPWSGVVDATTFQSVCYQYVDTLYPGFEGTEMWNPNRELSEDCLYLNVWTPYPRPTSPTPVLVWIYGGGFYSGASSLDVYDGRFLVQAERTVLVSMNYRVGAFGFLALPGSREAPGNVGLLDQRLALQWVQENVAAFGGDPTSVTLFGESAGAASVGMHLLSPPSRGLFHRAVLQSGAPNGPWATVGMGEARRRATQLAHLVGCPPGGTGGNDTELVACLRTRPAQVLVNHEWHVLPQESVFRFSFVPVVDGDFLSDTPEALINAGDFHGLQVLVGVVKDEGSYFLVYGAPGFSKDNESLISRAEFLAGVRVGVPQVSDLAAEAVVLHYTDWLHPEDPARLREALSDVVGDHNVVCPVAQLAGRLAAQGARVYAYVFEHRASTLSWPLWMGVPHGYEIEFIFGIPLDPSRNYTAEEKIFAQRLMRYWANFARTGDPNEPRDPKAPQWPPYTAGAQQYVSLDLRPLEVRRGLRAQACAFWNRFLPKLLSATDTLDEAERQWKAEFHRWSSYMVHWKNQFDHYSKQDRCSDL
UniProt P06276, 29-602 limits assumed: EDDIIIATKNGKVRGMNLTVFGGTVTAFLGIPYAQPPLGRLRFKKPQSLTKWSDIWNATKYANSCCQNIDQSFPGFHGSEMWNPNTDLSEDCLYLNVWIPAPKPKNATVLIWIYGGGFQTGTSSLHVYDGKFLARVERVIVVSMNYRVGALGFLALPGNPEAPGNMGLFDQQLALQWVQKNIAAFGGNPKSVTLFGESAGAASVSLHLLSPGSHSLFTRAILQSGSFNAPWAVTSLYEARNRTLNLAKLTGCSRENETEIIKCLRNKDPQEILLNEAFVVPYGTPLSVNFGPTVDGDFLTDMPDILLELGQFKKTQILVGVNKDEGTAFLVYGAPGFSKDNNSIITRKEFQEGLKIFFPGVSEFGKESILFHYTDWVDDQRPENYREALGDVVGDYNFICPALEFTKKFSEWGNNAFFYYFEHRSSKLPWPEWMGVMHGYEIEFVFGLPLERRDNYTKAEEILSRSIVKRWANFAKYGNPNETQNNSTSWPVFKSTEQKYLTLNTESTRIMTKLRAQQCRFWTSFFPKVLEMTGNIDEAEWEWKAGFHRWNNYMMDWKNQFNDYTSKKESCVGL
UniProt P21836, 32-614 limits assumed: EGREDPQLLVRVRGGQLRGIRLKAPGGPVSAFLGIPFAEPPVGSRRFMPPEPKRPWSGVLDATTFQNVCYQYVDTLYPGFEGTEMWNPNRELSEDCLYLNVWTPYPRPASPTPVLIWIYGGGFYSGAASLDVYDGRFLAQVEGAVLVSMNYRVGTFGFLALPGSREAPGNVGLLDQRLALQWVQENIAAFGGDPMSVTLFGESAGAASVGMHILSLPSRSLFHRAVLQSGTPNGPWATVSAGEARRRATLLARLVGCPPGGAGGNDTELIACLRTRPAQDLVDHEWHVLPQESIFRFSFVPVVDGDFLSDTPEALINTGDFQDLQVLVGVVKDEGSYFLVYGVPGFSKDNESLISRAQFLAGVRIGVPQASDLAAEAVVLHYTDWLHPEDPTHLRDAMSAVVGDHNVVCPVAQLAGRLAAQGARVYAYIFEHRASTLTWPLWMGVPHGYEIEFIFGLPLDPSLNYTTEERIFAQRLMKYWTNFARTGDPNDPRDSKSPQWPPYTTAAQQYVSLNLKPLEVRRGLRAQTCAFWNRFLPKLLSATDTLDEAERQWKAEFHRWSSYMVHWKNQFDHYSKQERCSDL

Row | SMILES | Ki (Acetylcholinesterase [2]) [nM] | Ki (Cholinesterase) [nM] | other results
1 | C[N+](C)(C)c1cccc(C(=O)C(F)(F)F)c1 |  |  | Ki (Acetylcholinesterase [1]): 0.015 nM
2 | CN(CCCCNc1c2c(nc3ccccc13)CCCC2)CCCNc1c2c(nc3ccccc13)CCCC2 | 0.0118 | 0.819 | 
3 | c1cc(CCNc2c3c(nc4ccccc24)CCCC3)cc(CCNc2c3c(nc4ccccc24)CCCC3)c1 | 1.72 | 0.924 | 
4 | CCOP(=O)(O)N(c1ccc(SC)c(C)c1)C(C)C |  |  | Ki (Acetylcholinesterase [3]): 0.2 ×10² /M/min
5 | CC(=O)N(CCCCSc1c2c(nc3ccccc13)CCCC2)CCCNc1c2c(nc3ccccc13)CCCC2 | 5.15 | 0.74 | 
6 | Cc1cc(CCNc2c3c(nc4ccccc24)CCCC3)cc(CCNc2c3c(nc4ccccc24)CCCC3)c1 | 7.45 | 5.04 | 
7 | O/N=C\c1cccc[n+]1CCCCCCC[n+]1ccccc1/C=N/O |  |  | Ki (Acetylcholinesterase [4]): 1300 nM
8 | Nc1ccc2c(c1)c(-c1ccccc1)[n+](CCCCCCc1cn(CCNc3c4c(nc5ccccc35)CCCC4)nn1)c1cc(N)ccc21 |  |  | Ki (Acetylcholinesterase [1]): 0.72 nM
9 | c1ccc2c(NCCCCCCCCSc3c4c(nc5ccccc35)CCCC4)c3c(nc2c1)CCCC3 | 27.9 | 1.65 | 
10 | CN(CCCNc1c2c(nc3ccccc13)CCCC2)CCCNc1c2c(nc3ccccc13)CCCC2 | 0.54 | 12.1 | 
11 | OCCN(CCCCNc1c2c(nc3ccccc13)CCCC2)CCCNc1c2c(nc3ccccc13)CCCC2 | 0.119 | 1.19 | 
12 | c1ccc2c(NCCCCNCCCSc3c4c(nc5ccccc35)CCCC4)c3c(nc2c1)CCCC3 | 2.67 | 0.779 | 
13 | C=CCN(CCCCNc1c2c(nc3ccccc13)CCCC2)CCCNc1c2c(nc3ccccc13)CCCC2 | 0.0847 | 4.19 | 
14 | CC(=O)N(CCCNc1c2c(nc3ccccc13)CCCC2)CCCSc1c2c(nc3ccccc13)CCCC2 | 13.4 | 3.13 | 
15 | CC[N+](CC)(CC)CCOc1cccc(OCC[N+](CC)(CC)CC)c1OCC[N+](CC)(CC)CC |  |  | Ki (Acetylcholinesterase [3]): 37000 nM; Ki (Acetylcholinesterase [1]): 15000 nM
16 | CC(=O)N(CCCCNc1c2c(nc3ccccc13)CCCC2)CCCSc1c2c(nc3ccccc13)CCCC2 |  | 0.27 | 
17 | CCN(CCCCNc1c2c(nc3ccccc13)CCCC2)CCCNc1c2c(nc3ccccc13)CCCC2 | 0.162 | 0.435 | 
18 | c1ccc2c(NCCCN3CCN(CCCNc4c5c(nc6ccccc46)CCCC5)CC3)c3c(nc2c1)CCCC3 | 0.136 | 3.22 | 
19 | CCC1=CC2Cc3nc4cc(Cl)ccc4c(N)c3[C@@H](C1)C2 [HUPRINE X] |  |  | Ki (Acetylcholinesterase [1]): 0.13 nM
20 | c1ccc2c(NCCc3cocc3CCNc3c4c(nc5ccccc35)CCCC4)c3c(nc2c1)CCCC3 | 13.3 | 7.29 | 
21 | C[N+](C)(C)CCCCCCCCCC[n+]1c(-c2ccccc2)cc(N)c2ccc3ccc(N)cc3c21 |  |  | Ki (Acetylcholinesterase [1]): 21.3 nM
22 | CN(CCCCSc1c2c(nc3ccccc13)CCCC2)CCCNc1c2c(nc3ccccc13)CCCC2 | 3.99 | 8.59 | 
23 | c1cc(CCNc2c3c(nc4ccccc24)CCCC3)nc(CCNc2c3c(nc4ccccc24)CCCC3)c1 | 0.768 | 1.87 | 
24 | c1ccc2c(NCCc3ccc(CCNc4c5c(nc6ccccc46)CCCC5)cc3)c3c(nc2c1)CCCC3 | 1.63 | 13.9 | 
25 | CC(=O)N(CCCCNc1c2c(nc3ccccc13)CCCC2)CCCNc1c2c(nc3ccccc13)CCCC2 | 0.223 | 0.725 | 

Source: ChEMBL document CHEMBL1150386 (J Med Chem, 2008)
